# Settings: Table S3: compounds exhibiting low PAMPA-BBB permeability
row,Sequence,PAMPA-BBB Pe(10^-6 cm/sec)
1,EVODIAMINE,<1 10^-6 cm/sec
2,OXYPAEONIFLORIN,<1 10^-6 cm/sec

# From publication PMC11876671, “Investigating blood–brain barrier penetration and neurotoxicity of natural products for central nervous system drug development” (Scientific Reports, 2025)
